Key:
[1] = target: PARP-1 (Homo sapiens, UniProt P09874); test: PARP-1 activity assay (HT Universal chemiluminescent PARP Assay Kit); format: biochemical; details: read-out: PARP1 enzyme IC50; 0.5 unit/well PARP-1, 25° C., 45 minutes
[2] = Pharmacokinetic assay, intravenous and oral administration; details: after oral administrations in rats
[3] = tested on: MDA-MB-436 cells; test: Cell proliferation assay (MTS, 7 days); format: cell-based; details: read-out: MDA-MB-436 cells EC50
[4] = tested on: SW620 xenograft; test: In vivo efficacy study: potentiating antitumor activity in combination with temozolomide; details: SW620 xenograft mice, oral, in combination with temozolomide (50 mg/kg) once daily for 5 days

Sequences of proteins named here, by UniProt entry; tags and fusion partners are left off.
UniProt P09874, whole entry: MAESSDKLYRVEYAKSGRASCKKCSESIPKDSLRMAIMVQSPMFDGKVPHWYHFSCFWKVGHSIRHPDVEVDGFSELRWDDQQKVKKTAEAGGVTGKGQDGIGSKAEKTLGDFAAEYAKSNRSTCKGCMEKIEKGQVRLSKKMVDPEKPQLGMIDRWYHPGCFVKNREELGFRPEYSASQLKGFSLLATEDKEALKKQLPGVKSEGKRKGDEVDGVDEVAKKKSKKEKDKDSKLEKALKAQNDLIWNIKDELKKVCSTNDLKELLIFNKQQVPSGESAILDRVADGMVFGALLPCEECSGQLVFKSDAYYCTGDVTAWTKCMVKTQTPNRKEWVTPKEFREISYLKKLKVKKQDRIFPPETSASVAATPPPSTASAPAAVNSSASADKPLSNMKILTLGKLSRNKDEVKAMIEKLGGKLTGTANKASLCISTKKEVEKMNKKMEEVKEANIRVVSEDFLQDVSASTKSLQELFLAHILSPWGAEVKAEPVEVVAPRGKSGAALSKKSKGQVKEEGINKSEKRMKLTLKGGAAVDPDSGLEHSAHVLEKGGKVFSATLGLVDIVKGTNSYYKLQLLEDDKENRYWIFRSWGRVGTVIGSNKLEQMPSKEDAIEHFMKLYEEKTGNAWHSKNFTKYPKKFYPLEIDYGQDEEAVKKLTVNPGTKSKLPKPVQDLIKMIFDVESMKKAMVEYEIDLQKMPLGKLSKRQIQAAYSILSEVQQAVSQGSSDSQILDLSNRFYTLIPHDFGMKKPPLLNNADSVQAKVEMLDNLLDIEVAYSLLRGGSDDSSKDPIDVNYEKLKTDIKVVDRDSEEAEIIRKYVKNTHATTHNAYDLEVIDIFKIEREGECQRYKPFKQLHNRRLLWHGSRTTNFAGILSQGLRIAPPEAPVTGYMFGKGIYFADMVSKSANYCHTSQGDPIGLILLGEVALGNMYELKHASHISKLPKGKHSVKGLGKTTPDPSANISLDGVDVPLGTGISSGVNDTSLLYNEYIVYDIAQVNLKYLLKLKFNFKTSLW

| IC50 [1] | EC50 [3] | SMILES | bioavailability (in words) [2] | suppression of tumor growth compared to the temozolomide control [4] |
| --- | --- | --- | --- | --- |
| 0.1 to 10 nM | > 10 nM | CCOC1CCN(C(=O)c2cc(Cn3c(=O)[nH]c(=O)c4ccccc43)ccc2F)CC1 |  |  |
| > 10 nM | 1000 to 100000 nM | O=C(c1cc(Cn2c(=O)[nH]c(=O)c3ccccc32)ccc1F)N1CCC(F)(F)CC1 |  |  |
| 0.1 to 10 nM | 1000 to 100000 nM | O=C(c1cc(Cn2c(=O)[nH]c(=O)c3ccccc32)ccc1F)N1CCC(O)CC1 |  |  |
| 0.1 to 10 nM | > 10 nM | CC(C)(C)OC1CCN(C(=O)c2cc(Cn3c(=O)[nH]c(=O)c4ccccc43)ccc2F)CC1 |  |  |
| > 10 nM | 1000 to 100000 nM | O=C(c1cc(Cn2c(=O)[nH]c(=O)c3ccccc32)ccc1F)N1CCC(F)CC1 |  |  |
| 0.1 to 10 nM | > 10 nM | O=C(c1cc(Cn2c(=O)[nH]c(=O)c3ccccc32)ccc1F)N1Cc2ccccc2C1 |  |  |
| 0.1 to 10 nM | > 10 nM | CC(C)OC1CCN(C(=O)c2cc(Cn3c(=O)[nH]c(=O)c4ccccc43)ccc2F)CC1 |  |  |

| SMILES | IC50 [1] | EC50 [3] | bioavailability (in words) [2] | suppression of tumor growth compared to the temozolomide control [4] |
| --- | --- | --- | --- | --- |
| O=C(c1cc(Cn2c(=O)[nH]c(=O)c3ccccc32)ccc1F)N1CCN(c2ccccn2)CC1 | 0.1 to 10 nM | > 10 nM | bioavailable | Significant suppression of tumor growth |
| O=C(c1cc(Cn2c(=O)[nH]c(=O)c3ccccc32)ccc1F)N1CCC(c2ncc[nH]2)CC1 | 0.1 to 10 nM | 1000 to 100000 nM |  |  |
